# Measurements from ChEMBL document CHEMBL1781953, “Synthesis and antimycobacterial activity of 5-formylaminopyrimidines; analogs of antibacterial purines” (Bioorg Med Chem Lett, 2009).
# Test system: Escherichia coli
# Test: Antibacterial activity against Escherichia coli
# Type: functional
sequence,measurement,value
GENTAMICIN,MIC,0.5 µg/mL
